The assay addresses purified pro-TGF-β1 (UniProt P01137). In words: Biacore (SPR); orientation not stated. (In general: Surface plasmon resonance follows binding to a sensor surface in real time, without labels.)

Chains of the proteins cited; added tags and fusions are not shown. Residues count along the entry.
UniProt P01137, 30-390 limits assumed: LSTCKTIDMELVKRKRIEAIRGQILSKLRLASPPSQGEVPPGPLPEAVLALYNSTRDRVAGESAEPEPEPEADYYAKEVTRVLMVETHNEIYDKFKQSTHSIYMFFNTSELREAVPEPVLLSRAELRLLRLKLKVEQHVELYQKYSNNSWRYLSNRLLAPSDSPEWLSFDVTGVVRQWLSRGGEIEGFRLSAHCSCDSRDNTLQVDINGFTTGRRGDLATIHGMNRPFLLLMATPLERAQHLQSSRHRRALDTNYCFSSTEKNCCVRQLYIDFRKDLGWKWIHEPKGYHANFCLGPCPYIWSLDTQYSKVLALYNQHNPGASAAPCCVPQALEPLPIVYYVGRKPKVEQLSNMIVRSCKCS

Usually Kd stands for a measure of binding affinity in units of concentration.

In turn, “3-domain αVβ6 integrin fragment, disulfide-linked (αV β-propeller and thigh domains with M400C; β6 βI domain with I270C) (from UniProt P06756 31-625; P18564 130-372) (receptor)” yielded a Kd of 180 pM.

Values taken from US20170183390A1.
